Structures can show the parent of a compound that is named as a salt.

The subject of this test is Gad1 H3K4me2 level in rat primary culture neurons. Put plainly: Gad1 H3K4 methylation induction activity in rat primary culture neurons (ChIP, quantitative PCR). Type of test: cell-based. As to conditions: Neuron, 72 h, read-out: Gad1 H3K4me2 induction activity (%).
Regarding `O=C(NC1CCOCC1)c1csc([C@@H]2C[C@H]2NCC2CC2)c1` [Example 71, 5-((1R,2R)-2-((cyclopropylmethyl)amino)cyclopropyl)-N-(tetrahydro-2H-pyran-4-yl)thiophene-3-carboxamide hydrochloride], the activity at 10 µM came out at 182%.
Regarding `Cc1nnc(NC(=O)c2cc([C@@H]3C[C@H]3NCC3CC3)cs2)s1` [Example 82, 4-((1S,2R)-2-((cyclopropylmethyl)amino)cyclopropyl)-N-(5-methyl-1,3,4-thiadiazol-2-yl)thiophene-2-carboxamide dihydrochloride], the activity at 10 µM worked out at 115%.
`Cc1nnc(NC(=O)c2cc([C@@H]3C[C@H]3NCC3CCOCC3)c(C)s2)s1` [Example 97, 5-methyl-N-(5-methyl-1,3,4-thiadiazol-2-yl)-4-((1S,2R)-2-((tetrahydro-2H-pyran-4-ylmethyl)amino)cyclopropyl)thiophene-2-carboxamide hydrochloride]: the activity at 10 µM turned out to be 184%.
`Cc1nnc(NC(=O)c2cc([C@@H]3C[C@H]3NC3CCC3)c(C)s2)s1` [Example 99, 4-((1S,2R)-2-(cyclobutylamino)cyclopropyl)-5-methyl-N-(5-methyl-1,3,4-thiadiazol-2-yl)thiophene-2-carboxamide hydrochloride]: the activity at 10 µM was determined as 146%.
As to `Cc1sc(C(=O)Nc2cnn(C)c2)cc1[C@@H]1C[C@H]1NC1CCC1` [Example 123, 4-((1S,2R)-2-(cyclobutylamino)cyclopropyl)-5-methyl-N-(1-methyl-1H-pyrazol-4-yl)thiophene-2-carboxamide hydrochloride], the activity at 10 µM stood at 143%.

The values are drawn from patent US10053456B2, “Cyclopropanamine compound and use thereof” (Takeda Pharmaceutical Company Limited, priority 2014, dated 2018).
